Source: ChEMBL document CHEMBL3271974, “Synthesis of the antileukemic compound N,N(11)-[5-[bis(2-chloroethyl)amino]-1, 3-phenylene]bisurea” (J Med Chem, 1976)

Experiments:
Mus musculus = assay: Toxicity in mouse allografted with mouse P388 cells at 30 mg/kg; details: in vivo
P388 = assay: Antitumor activity against mouse P388 cells allografted in mouse assessed as increase in survival rate at 30 mg/kg relative to control

Q: Which Activity (Mus musculus) does the source give for `Cl.Nc1cc(N)cc(N(CCCl)CCCl)c1` here?
A: Non-toxic

Q: What about the T/C (P388) of the same compound?
A: 215%
